# Data as given in paper PMC10862543, “Naphthalene Diimide–Tetraazacycloalkane Conjugates Are G-Quadruplex-Based HIV-1 Inhibitors with a Dual Mode of Action” (ACS Infectious Diseases, 2024).
# Like-named read-outs stand apart in the source and are kept apart here.
# How the values were obtained:
# HIV-1 R5 strain (BaL) = assay: microbe, parasite or virus in culture; format: cell-based; conditions: evaluation 48 hpi
# Procedure: Untreated cells were treated with the same solvent.
# HIV-1 X4 strain (NL4-3) = conditions: for fold less potent than the NDI-MOCs: HIV-1 X4 strain; for SI (CC50/IC50 ratio): X4 strain
compound,measurement,setting,value
CN(C)CCCNc1cc2c3c(c(NCCCCCC(=O)OCC4CNCCCNCCNCCN4)cc4c3c1C(=O)N(CCCN(C)C)C4=O)C(=O)N(CCCN(C)C)C2=O (stereo not drawn) [compound 5],IC50,"HIV-1 R5 strain (BaL); Human immunodeficiency virus 1, BAL, TZM-bl, administration 0 hpi, MOI 0.3",15.1 ± 1.21 µM
same,SI (CC50/IC50 ratio),HIV-1 R5 strain (BaL); administration 0 hpi,>1.65
same,SI (CC50/IC50 ratio),HIV-1 R5 strain (BaL); administration 2 hpi,>1.51
same,fold less potent than the NDI-MOCs,HIV-1 X4 strain (NL4-3); 24 h incubation assay,about 12 times
same,fold less potent than the NDI-MOCs,HIV-1 X4 strain (NL4-3); 48 h incubation assay,~5 times
same,SI (CC50/IC50 ratio),"HIV-1 X4 strain (NL4-3); administration 0 hpi, evaluation 24 hpi",>1.41
same,SI (CC50/IC50 ratio),"HIV-1 X4 strain (NL4-3); administration 0 hpi, evaluation 48 hpi",>13.44
same,SI (CC50/IC50 ratio),"HIV-1 X4 strain (NL4-3); administration 2 hpi, evaluation 24 hpi",>2.07
same,SI (CC50/IC50 ratio),"HIV-1 X4 strain (NL4-3); administration 2 hpi, evaluation 48 hpi",>13.71
